Source: PubChem BioAssay (several laboratories)
Sampled rows, rich in hits. Any-hit rate of the full collection: about 0.45%.
UUG fidelity: modulators of start codon recognition fidelity in yeast; S. cerevisiae UUG-firefly luciferase reporter, luminescence/redox ratio; activity score, % at 18.7 µM; hit rate 0.13% among 350,000; AID 602363;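 active = replicate mean at a twofold rise or more, about +100% in these data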;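 note: firefly luciferase made from a UUG start codon reports start codon fidelity; reporter light over untreated wells divided by growth signal over untreated wells; some hits fall short of that in this replicate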
PglD DTNB: PglD (C. jejuni) enzyme inhibition | purified PglD enzyme, DTNB colorimetric CoA detection | inhibition, % at 12.5 µM | hit rate 0.098% among 360,000; in the data active = inhibition above about 16%, passing the limit was not always enough
Tn7 DDE FP: DD(E)-Tn7 binding inhibition, primary FP screen | hit rate 0.13% among 370,000 | AID 720508 | inhibition, % at 8.3 µM | FP displacement of FITC-Tn7 peptide from fibrin DD(E); 0% = median of compound wells per plate;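 active = inhibition above the mean of compounds falling within the control limits plus 3 SD of them, cut at about 14% in these data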
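Assay system: Fibrin-DD(E) protein isolated from polymerized human fibrin clots; read-out basis: percent inhibition; medium: Tris/NaCl/CaCl2 buffer, pH 7.8; signal: FP measurement; incubation: 10 min plus 3 h, room temperature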
Tn6 DDE FP: inhibitors of Tn6 peptide binding to human fibrin DD(E); Fibrin DD(E) TRITC-Tn6 fluorescence polarization displacement; inhibition, % at 8.3 µM; AID 720509; hit rate 0.21% among 370,000; P02675;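 active = inhibition above a per-campaign cutoff: mean of compounds within control limits plus 3 SD, cut at about 15% in these data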
Tn6 DDE ctr: counter-screen hit for Tn6 peptide-fibrin DD(E) binding disruption; shares compounds with Tn6 DDE FP; TRITC-Tn6 fluorescence polarization displacement; 0% = median of compound wells, not DMSO; inhibition, % at 8.3 µM; hit rate 2% among 680; AID 720621;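 active = inhibition above the mean of test compounds lying between the control limits plus 3 SD of those, cut at about 14% in these data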
Tn6 DDE conf: DD(E)-Tn6 binding inhibition, FP confirmation. shares compounds with Tn6 DDE FP. FP displacement of TRITC-Tn6 peptide from DD(E); 0% = per-plate median of test wells. inhibition, % at 8.3 µM. hit rate 10% among 680;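 active = inhibition above the mean of compounds lying within the control limits plus 3 SD, cut at about 16% in these data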
Hits are given with their value; – = inactive; · = no result.

SMILES	UUG fidelity	PglD DTNB	Tn7 DDE FP	Tn6 DDE FP	Tn6 DDE ctr	Tn6 DDE conf
Cc1cccnc1C(NC(=O)C1CCN(CCOc2ccc(Cl)cc2Cl)CC1)c1ccc(Cl)cc1 (stereo not given)	–	–	–	16	–	–
C[C@@H]1CCCCO[C@H](CN(C)C(=O)c2ccncc2)[C@H](C)CN([C@H](C)CO)C(=O)c2cc(NC(=O)c3ccccc3)ccc2O1	·	–	·	·	·	·
CCS(=O)(=O)NCc1ccc2c(c1)cc(C)n2C	–	–	–	–	·	·
Cc1cc2cc(CNS(=O)(=O)c3ccccc3)ccc2n1C	–	–	–	60	–	–
COc1ccc(S(=O)(=O)NCc2ccc3c(c2)cc(C)n3C)cc1	–	–	–	51	–	–
COc1ccc(CNC(=O)C[C@H]2C[C@H]3c4cc(NS(C)(=O)=O)ccc4O[C@H]3[C@H](CO)O2)cc1	–	–	·	·	·	·
COc1cccc(OC)c1C(=O)NC(=S)Nc1cc(-c2nc3ccccc3[nH]2)ccc1Cl	·	·	–	55	–	–
COc1c(F)c(F)c(C(=O)Nc2ccc(-c3nc4ccccc4[nH]3)cc2)c(F)c1F	·	·	–	–	·	·
COc1cccc(CNC(=O)C[C@@H]2CC[C@@H]3[C@@H](COc4ccc(NC(C)=O)cc4C(=O)N3C)O2)c1	–	–	·	·	·	·
CN(Cc1cn(Cc2cccc(Cl)c2)nn1)C1CN(Cc2cn(Cc3cccc(Cl)c3)nn2)S(=O)(=O)C1 (stereo not given)	·	·	–	16	–	–
CN(C)C1CN(Cc2cn(Cc3cccc(Cl)c3)nn2)S(=O)(=O)C1 (stereo not given)	·	·	–	–	·	·
CC(C)NC(=O)c1onc(CSc2nc3ccccc3[nH]2)c1C(=O)NC(C)C	–	–	–	15	–	–
CCCCc1cc(=O)oc2c3c(cc(OCC(=O)NCCCO)c12)OC(C)(C)CC3	–	–	–	–	·	·
CCc1cc(=O)oc2c3c(cc(OCC(=O)NCCCn4ccnc4)c12)OC(C)(C)CC3	–	–	–	15	–	–
CC(=O)N(C)C[C@H]1Oc2cc(C#CC(C)(C)O)ccc2S(=O)(=O)N([C@H](C)CO)C[C@@H]1C	–	–	·	·	·	·
CC(NC(=O)N1CCOCC1)c1ccccc1 (stereo not given)	–	–	–	–	·	·
O=C(NC(c1ccccc1)c1ccccc1)N1CCOCC1	·	·	–	16	–	–
Nc1c(SCCC(=O)O)ccc2c1C(=O)c1ccccc1C2=O	–	–	–	50	–	27
C[C@@H]1CN([C@H](C)CO)C(=O)Cc2cc(NC(=O)Cc3ccccc3)ccc2O[C@H]1CN(C)S(=O)(=O)c1ccc(F)cc1	–	–	·	·	·	·
CC(C)c1cn(CC[C@H]2CC[C@@H](NC(=O)Nc3cc(Cl)cc(Cl)c3)[C@@H](CO)O2)nn1	–	–	·	·	·	·
Cc1cc(C)n2c(Nc3c(C)cccc3C)c(-c3ccccn3)nc2n1	·	·	–	16	–	–
CCCCNc1c(-c2ccccn2)nc2nc(C)cc(C)n12	·	·	–	–	·	·
CC(COc1cc(F)cc(C#N)c1)CN1CCC(C(O)(c2ccccc2)c2ccccc2)CC1 (stereo not given)	·	·	–	–	·	·
CC(COc1ccccc1C#N)CN1CCC(C(O)(c2ccccc2)c2ccccc2)CC1 (stereo not given)	·	·	–	16	–	–
CC(C)NC(=O)N(C)C[C@@H]1Oc2ncc(C#CC3CC3)cc2C(=O)N([C@H](C)CO)C[C@@H]1C	·	–	·	·	·	·
SMILES	UUG fidelity	PglD DTNB	Tn7 DDE FP	Tn6 DDE FP	Tn6 DDE ctr	Tn6 DDE conf
COc1ccccc1CCC(=O)Nc1nccs1	–	–	–	–	·	·
COc1ccccc1CCC(=O)Nc1ncc(C)s1	–	–	–	15	–	–
Cc1noc(C)c1S(=O)(=O)Nc1ccc2c(c1)C(=O)N([C@H](C)CO)C[C@@H](C)[C@@H](CN(C)C(=O)c1ccccc1)OCCCC[C@H](C)O2	–	–	·	·	·	·
O=C(Cn1cc([N+](=O)[O-])cn1)N1CCN(c2ccccc2)CC1	–	–	–	–	·	·
O=C(Cn1cc([N+](=O)[O-])cn1)N1CCc2ccccc2C1	·	·	–	15	–	–
CC(C)Cn1c2c(c(O)c(C(=O)Nc3ccc(F)cc3)c1=O)CCCC2	–	–	–	16	–	–
CO[C@H]1CN(C)C(=O)c2ccc(NS(=O)(=O)c3ccccc3)cc2OC[C@@H](C)N(Cc2nccs2)C[C@H]1C	–	–	·	·	·	·
CCN(CC)c1ccc(/C=C/c2cc(-c3ccccc3)c3ccccc3n2)cc1	–	–	–	17	–	–
CN(C)c1ccc(/C=C/c2ccc3ccccc3n2)cc1	–	–	·	·	·	·
Cc1ccc(CNc2ccc3c(c2)OCO3)cc1	–	–	·	·	·	·
c1cc(CNc2ccc3c(c2)OCO3)ccn1	–	–	–	16	–	–
CCCc1c(C)c2cc(C)ccc2[nH]c1=O	·	·	–	18	–	–
CCC(=O)NCCn1c(C)cc2ccccc21	–	–	·	·	·	·
Cc1cc2ccccc2n1CCNC(=O)c1ccc(Br)o1	–	–	–	17	–	–
Cc1cc2ccccc2n1CCNC(=O)Cc1cccc2ccccc12	–	–	–	46	–	–
CCN(CC)c1ccc2cc(C(N)=O)c(=O)oc2c1	–	–	–	20	–	–
C[C@@H]1CN([C@@H](C)CO)S(=O)(=O)c2ccc(C#Cc3ccccn3)cc2O[C@H]1CN(C)C(=O)C1CC1	–	–	·	·	·	·
CC(=O)Oc1cccc2c1C(=O)c1c(OC(C)=O)cc(C(=O)O)cc1C2=O	–	–	–	16	–	–
CC(=O)Oc1ccc(C(=O)O)cc1OC(C)=O	–	–	–	–	·	·
CC(=O)Nc1ccc(/C=C/c2ccc3cccc([N+](=O)[O-])c3n2)cc1	–	–	–	18	–	–
CN(C)c1ccc(/C=C/C=C2/SC(=S)N(c3ccccc3)C2=O)cc1	–	–	–	31	–	59
Cc1cc(C)cc(NC(=S)N2CCN(S(C)(=O)=O)CC2)c1	–	–	–	16	–	–
CO[C@@H]1CN(C)C(=O)c2cc(NC(=O)C3CCC3)ccc2OC[C@@H](C)N(Cc2ccncc2)C[C@@H]1C	–	–	·	·	·	·
COC(=O)c1cc(Br)c(=O)n(CCN2CCCC2)c1	–	–	–	17	–	–
CCN(Cc1nc2cc(Cl)ccc2c(=O)[nH]1)C(=O)c1cc(C2CC2)nn1-c1ccccc1	·	·	–	16	–	–
SMILES	UUG fidelity	PglD DTNB	Tn7 DDE FP	Tn6 DDE FP	Tn6 DDE ctr	Tn6 DDE conf
O=C(Nc1cccc(-c2nc3ccccc3[nH]2)c1)c1cccc(NC(=O)c2ccco2)c1	–	–	–	86	–	30
Cc1cccc(C(=O)NNC(=O)CN2C(=O)c3ccccc3C2=O)c1	·	·	–	17	–	–
CCNC(=O)Nc1ccc2c(c1)C(=O)N(C)[C@H]1CC[C@H](CC(=O)NCc3cccc(F)c3)O[C@H]1CO2	–	–	·	·	·	·
Cc1cc(C)c2cccc(N)c2n1	–	–	–	–	·	·
Cc1cc(C)c2ccc(N)nc2c1O	–	–	–	29	–	–
Cc1ccc(Cl)cc1NC(=O)CN1C(=O)COc2ccc(S(=O)(=O)N3CCOCC3)cc21	·	·	–	16	–	–
